Compound activity as filed in PubChem BioAssay.
An excerpt weighted towards active compounds, which were near 4.2% of everything screened.
ALR inh: inhibitors of human sulfhydryl oxidase ALR; AID 485317; inhibition, % (no concentration beside the values); purified ALR, DTT oxidation, H2O2 HRP-luminol luminescence; hit rate 3.8% among 290,000;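 active means mean and each replicate at 75% or more; inconclusive means only one of the two met; inactive means neither met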;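 further: stock transfer was 7.5 nL into about 7.5 µL; 0% = neutral wells and 100% = wells with inactivated enzyme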
MC4R antag cAMP: MC4R antagonists of cAMP signaling, primary screen, cell-based, TR-FRET, antagonist arm of biased-ligand search. Melanocortin receptor 4 (Homo sapiens), P32245. MC4R-expressing cells, MTII-stimulated cAMP, LANCE TR-FRET. inhibition, % at 6.5 µM. 360,000 tested, 0.48% active. AID 540295, 2011;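 active = inhibition above its plate's cutoff, the mean of tested wells on that plate plus 3 SD, cut at about 29% in these data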;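 also: 0% = Melanotan II alone and 100% = Melanotan II plus saturating MCL0020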
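System: U2OS cells stably expressing human melanocortin 4 receptor (MC4R). Reagent: Melanotan II challenge after compound preincubation. Doses: 6.5 µM. Times: 30-min compound, 1-h challenge, 1-h detection, room temperature. Measured by: TR-FRET with Eu-cAMP and labeled anti-cAMP, 671 nm. Replicates: singlicate.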
Yeast UUG start: alters start codon recognition fidelity in yeast. S. cerevisiae UUG-firefly luciferase reporter, luminescence/redox ratio. 350,000 tested, 0.13% active. activity score, % at 18.7 µM. AID 602363;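 active means replicate mean at a twofold rise or more, about +100% in these data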;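 further: firefly luciferase made from a UUG start codon reports start codon fidelity; reporter light over untreated wells divided by growth signal over untreated wells; some hits fall short of that in this replicate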
MC4R ag barr: MC4R agonists recruiting beta-arrestin, primary screen, cell-based, luminescence, agonist arm of biased-ligand search | activation, % at 8.9 µM | 360,000 tested, 0.98% active | U2OS MC4R beta-arrestin complementation; percent of melanotan II response, DMSO zero | AID 540308, 2011 | Melanocortin receptor 4 (Homo sapiens), P32245;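 active = activation above a per-plate cutoff, the mean activation of sample wells on that plate plus 3 SD, cut at about 8% in these data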
NALP1 inh: NALP1 inflammasome inhibitors in reconstituted yeast, colorimetric, S. cerevisiae, triplicate retest. S. cerevisiae NALP1/ASC/caspase-1 growth, X-gal OD620, 72 h. inhibition, % at 10 µM. 280,000 tested, 0.61% active. AID 2071, 2009; in the data active = inhibition mostly above about 24%, no sharp cut-off; inactive = mostly below about 32%
HDAC3 inh: HDAC3 deacetylase inhibitors, primary screen, biochemical, fluorescence, cell-free homogeneous | Histone deacetylase 3 (Homo sapiens), O15379 | recombinant HDAC3, fluorogenic peptide/trypsin coupled | inhibition, % at 8.3 µM | 320,000 tested, 0.15% active | AID 2718, 2010; in the data active = inhibition above about 26%, passing the limit was not always enough
An asterisk follows results filed as active; x = no result.

Amino acid sequences for entries named in this document (tags omitted).
Melanocortin receptor 4 (Homo sapiens), P32245, UniProt P32245, whole entry, looked up: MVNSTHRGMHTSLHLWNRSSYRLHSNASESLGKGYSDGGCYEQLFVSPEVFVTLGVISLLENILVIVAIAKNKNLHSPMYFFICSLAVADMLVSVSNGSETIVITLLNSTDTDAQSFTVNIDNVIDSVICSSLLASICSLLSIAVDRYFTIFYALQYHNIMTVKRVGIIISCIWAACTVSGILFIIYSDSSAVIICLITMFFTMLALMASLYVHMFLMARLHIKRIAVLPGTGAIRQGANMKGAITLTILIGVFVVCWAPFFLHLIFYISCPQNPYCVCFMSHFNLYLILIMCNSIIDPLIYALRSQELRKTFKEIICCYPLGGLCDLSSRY

Each structure is followed by: ALR inh | MC4R antag cAMP | Yeast UUG start | MC4R ag barr | NALP1 inh | HDAC3 inh
O=C(CN1CCN(c2ccc(O)cc2)CC1)NC(=O)NCc1ccco1
  98* | -10 | -10 | -2 | 26 | -6
COc1ccc(N2CCN(CC(=O)NC(=O)NCc3ccco3)CC2)cc1
  64 | -4 | x | -1 | 56 | 0
COCC(=O)N1[C@H](CO)[C@@H](c2ccc(C3=CCCCC3)cc2)[C@@H]1C#N
  x | x | 6 | x | x | x
C[C@H]1CN([C@@H](C)CO)C(=O)c2cc(-c3cccc(C#N)c3)cnc2O[C@@H]1CN(C)C(=O)c1cnccn1
  x | x | 5 | x | x | x
CN1CCN(CCC(=O)N/N=C/c2ccccc2F)CC1
  -33 | -2 | -18 | -3 | x | 1
O=C(CCN1CCN(c2ccccc2)CC1)N/N=C/c1ccccc1O
  84* | 0 | x | -1 | -10 | -1
O=C(NCCN1CCN(c2ccccc2)CC1)C1(S(=O)(=O)c2ccc(Cl)cc2)CC1
  99* | -3 | -20 | 0 | 23 | 2
Cc1cccc(C(=O)NCCN2CCN(c3ccccc3)CC2)c1
  x | 5 | -18 | 0 | 14 | 2
COc1ccc(C)cc1NC(=O)CCN1CCN(c2ccccc2)CC1
  95* | -4 | x | -1 | 15 | -4
O=C(NCCN1CCN(c2ccccc2)CC1)c1cccc(Cl)c1
  98* | 11 | -21 | -1 | 10 | 5
O=C(NCc1ccccc1Cl)C1(S(=O)(=O)c2ccc(Cl)cc2)CC1
  x | 7 | -3 | 2 | 22 | 1
O=C(C1CC1)N1[C@H](CO)[C@@H]2c3ccccc3N(S(=O)(=O)c3ccc(F)cc3)C[C@@H]21
  x | x | -3 | x | x | x
COc1ccc(S(=O)(=O)Nc2ccc3c(c2)C(=O)N([C@H](C)CO)C[C@@H](C)[C@H](CN(C)C(=O)Nc2ccc(F)cc2)OCCCC[C@@H](C)O3)cc1
  x | x | -4 | x | x | x
CN1C(=O)c2cc(NC(=O)C3CCOCC3)ccc2OC[C@@H]2O[C@@H](CC(=O)O)CC[C@@H]21
  x | x | -12 | x | x | x
CO[C@H]1CN(C)C(=O)c2cc(NS(=O)(=O)c3ccccc3F)ccc2OC[C@H](C)NC[C@@H]1C
  x | x | -7 | x | x | x
COc1cc2c(cc1OC)CN(C(=O)[C@@H]1[C@H]3C(=O)O[C@H](c4ccccc4)[C@H](c4ccccc4)N3[C@H](c3ccc(OCCO)cc3)[C@@]13C(=O)Nc1ccc(C#CC4(O)CCCCCC4)cc13)CC2
  x | x | -9 | x | x | x
O=C(Cc1c(C(=O)O)[nH]c2ccccc12)NCCN1CCN(c2cccc(Cl)c2)CC1
  88* | 8 | -6 | -1 | 2 | -6
Cc1cccc(C)c1NC(=O)NCCCN1CCN(c2ccccc2)CC1
  82* | 8 | -14 | -2 | 3 | x
CC1CC(C)CN(CCCNC(=O)Cc2c(C(=O)O)[nH]c3ccccc23)C1 (stereo not given)
  -5 | 3 | -9 | -1 | 4 | -1
COc1ccccc1C(=O)NCCN1CCN(c2ccccc2)CC1
  97* | 10 | 3 | 1 | 0 | -6

A run of entries of the results above:
Each structure is followed by: ALR inh | MC4R antag cAMP | Yeast UUG start | MC4R ag barr | NALP1 inh | HDAC3 inh
CN1C(=O)c2cc(NC(=O)C3CCOCC3)ccc2OC[C@@H]2O[C@@H](CC(=O)O)CC[C@@H]21
  x | x | -12 | x | x | x
CO[C@H]1CN(C)C(=O)c2cc(NS(=O)(=O)c3ccccc3F)ccc2OC[C@H](C)NC[C@@H]1C
  x | x | -7 | x | x | x
COc1cc2c(cc1OC)CN(C(=O)[C@@H]1[C@H]3C(=O)O[C@H](c4ccccc4)[C@H](c4ccccc4)N3[C@H](c3ccc(OCCO)cc3)[C@@]13C(=O)Nc1ccc(C#CC4(O)CCCCCC4)cc13)CC2
  x | x | -9 | x | x | x

Additional results follow:
Each structure is followed by: ALR inh | MC4R antag cAMP | Yeast UUG start | MC4R ag barr | NALP1 inh | HDAC3 inh
Cc1cccc(C)c1NC(=O)C(=O)NCCCN1CCOCC1
  -2 | -1 | x | -2 | 34 | 11
CN(C)C(=O)c1cccc(-c2ccc([C@H]3[C@@H](CO)N4CCCCN(C(=O)C5CCCC5)C[C@@H]34)cc2)c1
  x | x | 1 | x | x | x
CCOC(=O)c1nn(-c2ccc3c(c2)OCO3)cc1O
  94* | 2 | x | -2 | x | -21
C[C@@H]1CCCCO[C@H](CN(C)Cc2ccc(C(F)(F)F)cc2)[C@H](C)CN([C@H](C)CO)C(=O)c2cc(NC(=O)C3CCCCC3)ccc2O1
  x | x | 10 | x | x | x
O=C(CCN1CCc2ccccc2C1)c1ccc2c(c1)OCCO2
  98* | 23 | -15 | -4 | -18 | 3
Cc1ccc(NNC(=O)c2ccno2)cc1C
  98* | -4 | x | 0 | 2 | 0
Cc1cc(C(=O)NNc2ccc(C)c(C)c2)no1
  99* | -1 | x | 0 | 9 | 2
Cc1cc(C(=O)NNc2ccc(F)cc2F)no1
  98* | 3 | -19 | 0 | x | -3
Cc1ccc(NNC(=O)c2ccno2)cc1Cl
  99* | 4 | -39 | -2 | 15 | 2
CCOC(=O)C(=Cc1cc(=O)c(OC)co1)C(=O)OCC
  x | 6 | x | 4 | 85* | x
CCOc1ccc(N2C(=O)CSC23CCCCC3)cc1
  24 | -3 | -1 | -2 | 14 | -7
COc1ccc(N2C(=O)CSC23CCCCC3)cc1
  98* | 19 | 37 | 2 | -68 | 0
Cc1c(O)ccc(-c2[nH]ncc2-c2nc3ccccc3s2)c1O
  89* | 14 | 0 | -1 | 16 | 5
Cc1c(O)ccc(-c2n[nH]c(C(=O)O)c2-c2nc3ccccc3s2)c1O
  17 | -6 | -21 | 0 | -6 | 3
CCOC(=O)C(CSCC(=O)c1ccc(Br)cc1)NC(=O)OC(C)(C)C (stereo not given)
  99* | x | x | x | 4 | 16
Cc1noc(C)c1S(=O)(=O)N(C)C[C@H]1Oc2c(NS(=O)(=O)c3ccc(F)cc3)cccc2C(=O)N([C@@H](C)CO)C[C@H]1C
  x | x | 5 | x | x | x
CCOC(=O)C1CCN(C(=O)c2ccc3c(Cl)c4c(nc3c2)CCCC4)CC1
  95* | 0 | 7 | 0 | 9 | 9
CCCN1CCN(CCCNC(=O)c2ccc3c(Cl)c4c(nc3c2)CCCC4)CC1
  44 | 3 | 14 | 0 | 18 | 2
O=C(NCCCN1CCCC1)c1ccc2c(Cl)c3c(nc2c1)CCCC3
  94* | -2 | x | -4 | 17 | -3
CCOC(=O)N1CCN(C(=O)c2ccc3c(SCC(=O)O)c4c(nc3c2)CCC4)CC1
  80* | 3 | 4 | -1 | -11 | 4

Two of these compounds, set out differently.
ALR inh | MC4R antag cAMP | Yeast UUG start | MC4R ag barr | NALP1 inh | HDAC3 inh | mol
98* | -4 | x | 0 | 2 | 0 | Cc1ccc(NNC(=O)c2ccno2)cc1C
99* | -1 | x | 0 | 9 | 2 | Cc1cc(C(=O)NNc2ccc(C)c(C)c2)no1

Further records follow.
Each structure is followed by: ALR inh | MC4R antag cAMP | Yeast UUG start | MC4R ag barr | NALP1 inh | HDAC3 inh
COc1ccccc1-c1cn(CC[C@@H]2CC[C@H](NS(=O)(=O)c3ccccc3C)[C@H](CO)O2)nn1
  x | x | -3 | x | x | x
O=S(=O)(c1cccc(-c2n[nH]c(=S)n2-c2ccccc2Cl)c1)N1CCOCC1
  99* | -4 | -13 | -2 | x | 1
CC(=O)N=c1c(C#N)cc2c(=O)n3ccccc3nc2n1CCCOC(C)C
  x | -3 | 4 | -1 | 20 | -168
CC(C)OCCCn1c(=NC(=O)c2ccncc2)c(C#N)cc2c(=O)n3ccccc3nc21
  97* | 10 | -13 | 0 | 15 | -420
CCCNC(=O)Nc1ccc2c(c1)OC[C@H](C)N(CCC)C[C@@H](C)[C@@H](OC)CN(C)C2=O
  x | x | -11 | x | x | x
CCCOc1ccc(C2=CSC3=NCCN23)cc1
  67 | -3 | -24 | 0 | -3 | 4
